# Data as given in ChEMBL document CHEMBL1143976, “Synthesis of fluorine substituted pyrazolopyrimidines as potential leads for the development of PET-imaging agents for the GABAA receptors” (Bioorg Med Chem, 2008).
# Amino acid sequences for entries named in this document (tags omitted). A change or cut given only in a name is not applied to a line headed by its entry.
# UniProt P62813: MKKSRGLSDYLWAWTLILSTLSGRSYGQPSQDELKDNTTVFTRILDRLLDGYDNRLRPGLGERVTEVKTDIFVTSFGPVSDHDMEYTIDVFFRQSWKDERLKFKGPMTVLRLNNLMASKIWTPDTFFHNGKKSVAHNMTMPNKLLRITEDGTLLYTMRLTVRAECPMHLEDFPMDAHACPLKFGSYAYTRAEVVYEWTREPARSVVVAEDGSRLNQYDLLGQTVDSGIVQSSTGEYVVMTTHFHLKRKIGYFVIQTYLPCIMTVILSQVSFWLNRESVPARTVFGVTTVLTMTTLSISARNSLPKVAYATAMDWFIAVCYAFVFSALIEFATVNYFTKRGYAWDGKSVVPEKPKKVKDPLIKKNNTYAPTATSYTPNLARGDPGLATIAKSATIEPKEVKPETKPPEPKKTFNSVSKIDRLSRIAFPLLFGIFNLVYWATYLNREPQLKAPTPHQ
# Legend:
# [1] = molecular target: T1, Gamma-aminobutyric acid receptor subunit alpha-1 (Rattus norvegicus, UniProt P62813); assay: Displacement of [3H]Ro15-1788 from GABAA alpha-1 receptor in Sprague-Dawley rat cerebellar membrane; parameters: species or system Cerebellum
# [2] = molecular target: T1, Gamma-aminobutyric acid receptor subunit alpha-1; assay: Displacement of [3H]Ro15-1788 from GABAA alpha1 receptor in Sprague-Dawley rat cerebral cortex membrane; type: tissue-based
compound,measurement,setting,value
CC(=O)N(C)c1cccc(-c2ccnc3c(C(=O)c4cccs4)cnn23)c1 [INDIPLON],Ki,[1],550 pM
same,Ki,[2],450 pM
